For the assay, the target named is Tubulin alpha chain (Sus scrofa) (UniProt P02550). The assay can be described thus: Compound is evaluated for tubulin polymerization (ratio of compound relative to paclitaxel (EC0.01).

Chains of the proteins cited; added tags and fusions are not shown.
UniProt P02550, whole entry, looked up: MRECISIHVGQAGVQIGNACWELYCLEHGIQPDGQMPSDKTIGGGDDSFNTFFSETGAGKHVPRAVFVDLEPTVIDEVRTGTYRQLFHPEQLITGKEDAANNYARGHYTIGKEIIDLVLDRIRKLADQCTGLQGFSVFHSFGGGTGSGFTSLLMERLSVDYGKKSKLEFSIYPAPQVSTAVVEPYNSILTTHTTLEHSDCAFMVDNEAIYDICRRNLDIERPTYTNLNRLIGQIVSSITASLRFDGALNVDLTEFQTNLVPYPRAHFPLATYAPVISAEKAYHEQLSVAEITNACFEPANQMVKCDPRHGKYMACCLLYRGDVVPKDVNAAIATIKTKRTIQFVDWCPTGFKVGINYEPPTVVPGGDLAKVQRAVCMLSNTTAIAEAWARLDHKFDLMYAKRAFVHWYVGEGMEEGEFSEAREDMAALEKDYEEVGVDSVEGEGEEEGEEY

As to `CC(=O)O[C@H]1C(=O)[C@]2(C)[C@@H](O)CC3OC[C@@]3(OC(=O)C3CC3)[C@H]2[C@H](OC(=O)c2ccccc2)[C@]2(O)C[C@H](OC(=O)[C@H](O)[C@@H](NC(=O)c3ccccc3)c3ccccc3)C(C)=C1C2(C)C` (stereo partly specified), the Ratio was 0.3.

Source of the values: ChEMBL document CHEMBL1128407 (J Med Chem, 1995).
